Laboratory results as given in PMC5080911 (Journal of medicinal chemistry, 2016).

System: tubulin
Experiment: Tubulin polymerization assay
Conditions: 3 µM, 37 °C, monitored 1 h

Question: For `CC(=O)O[C@H]1C(=O)[C@@]2(C)[C@H]([C@H](OC(=O)c3ccccc3)[C@]3(O)C[C@H](OC(=O)[C@H](O)[C@@H](NC(=O)c4ccccc4)c4ccccc4)C(C)=C1C3(C)C)[C@]1(OC(C)=O)CO[C@@H]1C[C@@H]2O` [PTX, Paclitaxel, reference compound], which “time to reach maximum/plateau of tubulin polymerization” value is on record?
Answer: ~ 16 min
